{"source": "ChEMBL document CHEMBL5042532", "about": "“Discovery of N-(4-(Benzyloxy)-phenyl)-sulfonamide Derivatives as Novel Antagonists of the Human Androgen Receptor Targeting the Activation Function 2” (J Med Chem, 2022)", "system": "LNCaP", "test": "Downregulation of RACGAPI mRNA expression in human LNCaP cells at 0.1 to 1 uM measured after 48 hrs by qRT-PCR analysis", "format": "functional, cell-based", "conditions": "dose 0.1-1 µM", "note": "Calls of active or inactive are those of the source. No cut-off for these calls is given here."}
{"smiles": "CNC(=O)c1ccc(N2C(=S)N(c3ccc(C#N)c(C(F)(F)F)c3)C(=O)C2(C)C)cc1F", "note": "[ENZALUTAMIDE]", "values": [{"measurement": "Activity", "result": "Active"}]}
